According to ChEMBL document CHEMBL3045932, “Involvement of Esterase in Phytotoxicity of a New Pyrrolinone Compound, Methyl 1-[1-(3,5-Dichlorophenyl)-1-methylethyl]-2,3-dihydro-4-methyl-2-oxo-3-phenyl-1H-pyrrole-3-carboxylate, to Early Watergrass (Echinochloa oryzicola) and Rice (Oryza sativa)” (J Pestic Sci, 2005):

Assay: Selectivity ratio of I50 for Oryza sativa to I50 for Echinochloa oryzicola by hydroponics test

Structure (SMILES): CC1=C(c2ccccc2)C(=O)N(C(C)(C)c2cc(Cl)cc(Cl)c2)C1
- Selectivity ratio: 10

Structure (SMILES): COC(=O)C1(c2ccccc2)C(=O)N(C(C)(C)c2cc(Cl)cc(Cl)c2)C=C1C (configuration not stated)
- Selectivity ratio: 104
